Assay results reported in ChEMBL document CHEMBL1131654 (Bioorg Med Chem Lett, 1998).

Sequences of proteins named here, by UniProt entry; tags and fusion partners are left off.
UniProt P08908, whole entry: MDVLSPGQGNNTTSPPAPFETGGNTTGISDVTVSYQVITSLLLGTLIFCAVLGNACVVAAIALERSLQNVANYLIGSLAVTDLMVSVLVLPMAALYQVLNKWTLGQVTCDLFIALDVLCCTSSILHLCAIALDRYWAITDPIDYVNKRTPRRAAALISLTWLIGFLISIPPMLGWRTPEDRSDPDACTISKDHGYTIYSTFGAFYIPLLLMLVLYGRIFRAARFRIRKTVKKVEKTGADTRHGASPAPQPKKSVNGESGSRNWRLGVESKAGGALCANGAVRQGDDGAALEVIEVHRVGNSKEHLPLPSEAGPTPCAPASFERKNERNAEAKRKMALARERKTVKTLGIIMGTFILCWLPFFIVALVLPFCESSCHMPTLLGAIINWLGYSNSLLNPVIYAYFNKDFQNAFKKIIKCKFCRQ

Biological target: 5-hydroxytryptamine receptor 1A (Homo sapiens, UniProt P08908)
Assay: In vitro binding affinity was determined towards cloned human 5-hydroxytryptamine 1A receptor using [3H]8-OH-DPAT radioligand

Compound: CNS(=O)(=O)Cc1ccc2[nH]cc(CCN(C)C)c2c1
- Ki: 407 nM
